The numbers were not newly measured in patent US9126947B2, “Substituted pyridazine carboxamide compounds” (Xcovery Holding Company LLC, priority 2010, dated 2015), which cites them from elsewhere.

For this data set, the system named is NSCLC with EML4-ALK. The following applies: cited from earlier work.
The mark [1] stands for this setting: expansion trial, 50 evaluable patients.

Turning to `C[C@@H](Oc1cc(-c2cnn(C3CCNCC3)c2)cnc1N)c1c(Cl)ccc(F)c1Cl` [PF-2341066, crizotinib], under setting [1], the Disease control was 90% and the “Objective response (ORR) by RECIST” value is 64%. Also, under “phase I trial, NSCLC patients with EML4-ALK”, the Radiographic response rate is listed as 60%.
